The assay concerns the target Muscarinic acetylcholine receptor M3 (Rattus norvegicus, UniProt P08483). Nature of the assay: Affinity for rat Muscarinic acetylcholine receptor M3.

Protein sequences, listed by entry. Tags and fused reporters are not part of them.
UniProt P08483, whole entry: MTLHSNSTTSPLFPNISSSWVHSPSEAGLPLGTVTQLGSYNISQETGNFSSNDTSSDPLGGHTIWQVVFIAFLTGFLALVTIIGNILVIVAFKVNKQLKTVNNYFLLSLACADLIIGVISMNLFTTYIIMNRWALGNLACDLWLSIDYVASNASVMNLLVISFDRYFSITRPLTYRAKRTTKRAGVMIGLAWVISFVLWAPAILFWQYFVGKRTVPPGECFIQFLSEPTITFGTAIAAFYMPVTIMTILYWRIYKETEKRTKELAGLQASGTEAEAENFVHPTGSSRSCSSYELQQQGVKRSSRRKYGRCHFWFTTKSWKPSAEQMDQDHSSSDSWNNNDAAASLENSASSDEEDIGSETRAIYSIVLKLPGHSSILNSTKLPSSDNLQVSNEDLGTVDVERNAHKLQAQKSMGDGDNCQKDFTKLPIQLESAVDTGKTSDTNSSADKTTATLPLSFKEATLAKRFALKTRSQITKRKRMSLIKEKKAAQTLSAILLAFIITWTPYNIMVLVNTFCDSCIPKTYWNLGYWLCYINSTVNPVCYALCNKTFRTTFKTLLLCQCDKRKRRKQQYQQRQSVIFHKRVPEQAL

Where “and” joins values, the source holds several entries; their conditions need not be identical. Equal values may be shown once.

In ChEMBL document CHEMBL1143535 (Bioorg Med Chem Lett, 2005) one finds Ki data, which are given here for ten molecules.

The term Ki denotes a measure of affinity in units of concentration, obtained from inhibition or displacement. The low end stands for tighter binding, the high end for weaker binding.

On to `Cc1ccc(O)c(C(CCN2C[C@H]3C[C@H]3C2C)c2ccccc2)c1` (stereo not given in full), for which the Ki is 0.079 µM and 0.025 µM.

In turn, `Cc1ccc(OCc2ccccc2)c(C(CCN2C[C@@]3(C)C[C@@]3(C)C2)c2ccccc2)c1` (stereo not given in full) showed a Ki of more than 10 µM.

`Cc1ccc(O)c(C(CCN2C[C@H]3C[C@@]3(C)C2)c2ccccc2)c1` (stereo not given in full) displayed a Ki of 0.118 µM.

`O=C(NCC#CCN1CC2CC2C1)C(O)(c1ccc(F)cc1)c1ccc(F)cc1` (stereo not given) came in with a Ki of 0.366 µM.

For the molecule `O=C(NCC#CCN1CC2CC2C1)C(O)(c1ccccc1)c1ccccc1` (stereo not given), the affinity corresponds to a Ki of 0.291 µM.

For the molecule `Cc1ccc(OCc2ccccc2)c(C(CCN2C[C@H]3C[C@H]3C2)c2ccccc2)c1` (stereo not given in full), the Ki is more than 1 µM.

Turning to `Cc1ccc(OCc2ccccc2)c(C(CCN2C[C@H]3C[C@H]3C2C)c2ccccc2)c1` (stereo not given in full), the Ki was more than 1 µM.

As to `Cc1ccc(O)c(C(CCN2C[C@@]3(C)C[C@@]3(C)C2)c2ccccc2)c1` (stereo not given in full), the inhibition constant (Ki) is more than 1 µM.

Take `O=C(NCC#CCN1CC2CC2C1)C(O)(c1ccccc1)C1CCCCC1` (stereo not given): the affinity corresponds to a Ki of 2.61 µM. This lies in the single-digit micromolar range.

Take `Cc1ccc(O)c(C(CCN2CC3C[C@@H]3C2)c2ccccc2)c1` (single isomer, unassigned): affinity was put at a Ki of 0.05 µM.
